Experimental data reported in ChEMBL document CHEMBL5442175, “EUbOPEN Chemogenomics Library - PDSP Secondary Binding” (2024).

Columns and labels:
[1] = biological target: Kappa-type opioid receptor (Homo sapiens, UniProt P41145)
[2] = biological target: Mu-type opioid receptor (Homo sapiens, UniProt P35372)

O=C1NCN(c2ccccc2)C12CCN(CCCOc1ccc(F)cc1)CC2
Ki [1]: 914 nM
Ki [2]: 156 nM
